Measurements: ChEMBL document CHEMBL1149647, “Structure-based design of TACE selective inhibitors: manipulations in the S1'-S3' pocket” (Bioorg Med Chem, 2007)

Target: Collagenase 3 (Homo sapiens, UniProt P45452)
Test: Inhibition of human recombinant MMP13
How it was run: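 Enzyme potency is expressed as IC50 in nM, reported as average ± SD.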

## CC#CCOc1ccc(S(=O)(=O)N2CCSC(C)(C)[C@@H]2C(=O)NO)cc1
  IC50: 2.4 nM
